## AlphaSeq binding of Ab-14 light chain variants to a spike HR2 peptide

Binding partner: SARS-CoV-2 spike HR2 peptide, sequence PDVDLGDISGINAS.

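The starting antibody came from a phage panning campaign against this peptide. These sequences belong to a second round, designed from the earlier measurements on random variants of the parent. Several design methods are mixed in this list. In AlphaSeq, yeast of one mating type display the scFv and yeast of the other type display the target. Mating (16 h, 30 °C) was followed by selection of diploids and sequencing of their barcodes. Read counts were normalised to the haploid input and turned into Kd by a linear fit to BCL2-family pairs of known affinity, for each replicate. The assay was run in six technical replicates.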

Parent scFv Ab-14: VH joined to VL by a (GGGGS)3 linker. Changes lie in the light chain CDRs alone.
VH: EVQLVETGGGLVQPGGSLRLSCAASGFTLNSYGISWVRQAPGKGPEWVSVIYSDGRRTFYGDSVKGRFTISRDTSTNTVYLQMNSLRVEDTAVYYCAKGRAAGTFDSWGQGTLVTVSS
VL: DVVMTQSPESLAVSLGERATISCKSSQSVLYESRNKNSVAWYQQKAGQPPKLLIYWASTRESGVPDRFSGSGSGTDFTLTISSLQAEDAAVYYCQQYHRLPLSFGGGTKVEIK

The parent's light chain CDRs are KSSQSVLYESRNKNSVA, WASTRES, QQYHRLPLS; each variant's own CDRs replace them letter for letter. Values are apparent Kd, the geometric mean of the replicates that gave a signal; lower means stronger binding. "nd" means that the variant was in the library but no mating with the target was seen in any replicate; the authors take this as a sign of poor binding, and no number exists. Of ten entries with the parent sequence, four were seen in most replicates (averages 2.2 nM to 240 nM), three in one and three in none, so single entries are noisy. A sequence measured in both rounds can read differently, since the two assays cover different ranges. Empty control strains, which show no peptide, gave a signal in 4% of pairings with all light chain designs; the median was 430 nM and 95% of these signals were weaker than 38 nM. No background was subtracted. The control count says in how many pairings with the empty strains this scFv gave a signal. The authors' rule: three or more of the six replicates give a measured affinity, fewer mean a poor binder.

For RLGGLDVNSTYEMDAVA, DVNTVGE, QHYSRLPLT, the assay gave nd (0 of 6 replicates; controls 0 of 18).
For MLSQMWAIGTKVKNSVA, QASMRFN, QQYDRLPLI, the assay gave 450 nM (5 of 6 replicates; controls 0 of 18).
For MISMEEAPAGQQESSIA, HGGTRAE, QQYNRLPLC, the assay gave 2.5 nM (6 of 6 replicates; controls 0 of 18).
For KSSQSVLHDSRNKNSVA, WASTRES, QLYHRLPLS, the assay gave nd (0 of 6 replicates; controls 1 of 18).
For KMAQGWMYESRNKNSVA, NASVREM, QQYHRLPLS, the assay gave 640 pM (6 of 6 replicates; controls 1 of 18).
For RLRNDWQGWIGNGASIA, DANMYAK, QQYQRLPLA, the assay gave 2.4 nM (6 of 6 replicates; controls 3 of 18).
For KASQSVLYESRNKNSVA, WASTRES, QWYHRLPLS, the assay gave nd (0 of 6 replicates; controls 0 of 18).
For KLSQYVGGESRNKSSLA, DNNTRED, QQYERLPLS, the assay gave 67 nM (6 of 6 replicates; controls 5 of 18).
For KLDQSCLYESRNKNSVA, GASTRES, QQYHRLPLS, the assay gave 550 pM (6 of 6 replicates; controls 0 of 18).
For KLSQSVMYESRNPNSVA, NASTRMS, QQYHRLPLS, the assay gave 890 pM (6 of 6 replicates; controls 0 of 18).
For KYSQSVLYESRNKNSVA, DASTRES, QQYHRLPLD, the assay gave 2.2 nM (6 of 6 replicates; controls 0 of 18).
For KISQMVKVGATHSNSIA, EEVTRAN, QQYHRLPLS, the assay gave 1.5 nM (6 of 6 replicates; controls 1 of 18).
For KVPQSVVYEGRNKNSVA, HASTRED, QQYHRLPLS, the assay gave 760 pM (6 of 6 replicates; controls 1 of 18).
For KWSMGVMGESRNFNSVA, NASTRES, QQYHRLPLS, the assay gave 670 pM (6 of 6 replicates; controls 0 of 18).
For KSSQSVLFEERNKNSVA, WASTRAS, QQYHRLPLS, the assay gave 7.9 nM (6 of 6 replicates; controls 0 of 18).
For VFSGQWDLNTTENSAVA, NVSERML, QQYNRLPLM, the assay gave 39 nM (6 of 6 replicates; controls 1 of 18).
For KHSQSVLTESRNKNSVA, WASTREF, QQYHRLLLS, the assay gave nd (0 of 6 replicates; controls 0 of 18).

Continued, with the values leading:

Result 760 pM (6 of 6 replicates; controls 2 of 18), variant KSGQGVLYESRNWNSVA, GASTRES, QQYHRLPLS.
Result 1.5 nM (6 of 6 replicates; controls 3 of 18), variant KLTSITGTEKVLGNNVA, EMETREN, QQYNRLPLS.
Result 3.6 nM (6 of 6 replicates; controls 3 of 18), variant HSSQSVLYESRNKNNVA, NASTRES, QQYHRLPLS.
Result nd (0 of 6 replicates; controls 0 of 18), variant KISQSVLFESRNKNSVA, SASTRES, QQYHRLYLS.
Result 7.3 nM (6 of 6 replicates; controls 2 of 18), variant KLMWSVEYESRNQNSVA, SASYRES, QQYHRLPLS.
Result 2.4 nM (6 of 6 replicates; controls 1 of 18), variant KLSQVTEYESHNKNNVA, DLTTRGR, QDYHRLPLS.
Result 2.4 nM (6 of 6 replicates; controls 1 of 18), variant KISMLSRYESQNKNSIA, EMSRREN, QQYHRLPLS.
Result 1.7 nM (6 of 6 replicates; controls 1 of 18), variant KHSQSVLYESRNKNSVA, EASQRES, QQYHRLPLS.
Result 1.7 nM (6 of 6 replicates; controls 1 of 18), variant KVSQSELYEDRNKNSVA, NASQRES, QQYHRLPLS.
Result 2.8 nM (6 of 6 replicates; controls 3 of 18), variant NISESMYVQSINKNNIA, EMSTRER, QHYHRLPLS.
Result 980 nM (6 of 6 replicates; controls 2 of 18), variant KFSQPVLYESRNKNSVA, NASTRES, QQYHRYPLS.
Result 220 pM (6 of 6 replicates; controls 1 of 18), variant KLSQSELYESRNKNSVA, NASTRLS, QQYHRLPLS.
Result 8.9 nM (6 of 6 replicates; controls 1 of 18), variant MMSQVTGMESKHRNNVA, QTSTRES, QQYDRLPLI.
Result 480 pM (6 of 6 replicates; controls 2 of 18), variant KQSQAVWYEQRNKNNVA, EGSTRES, QQYHRLPLS.
Result 1.8 nM (6 of 6 replicates; controls 0 of 18), variant KFSQMVNSMSVSHSAVA, EMSTRES, QQYNRLPLS.
Result 100 nM (2 of 6 replicates; controls 0 of 18), variant RYQMDDNSGKGMRNNVA, DGAEVRM, QQYARLPLW.
Result 3.2 nM (6 of 6 replicates; controls 1 of 18), variant KVSILDLGGDRNKNSVA, HASLRES, QQYHRLPLS.

Repeated from above, the 5 best binders with a signal in all replicates:

{"CDR-L1": "KLSQSELYESRNKNSVA", "CDR-L2": "NASTRLS", "CDR-L3": "QQYHRLPLS", "Kd (apparent)": "220 pM", "replicates with signal": "6 of 6", "control signals": "1 of 18"}
{"CDR-L1": "KQSQAVWYEQRNKNNVA", "CDR-L2": "EGSTRES", "CDR-L3": "QQYHRLPLS", "Kd (apparent)": "480 pM", "replicates with signal": "6 of 6", "control signals": "2 of 18"}
{"CDR-L1": "KLDQSCLYESRNKNSVA", "CDR-L2": "GASTRES", "CDR-L3": "QQYHRLPLS", "Kd (apparent)": "550 pM", "replicates with signal": "6 of 6", "control signals": "0 of 18"}
{"CDR-L1": "KMAQGWMYESRNKNSVA", "CDR-L2": "NASVREM", "CDR-L3": "QQYHRLPLS", "Kd (apparent)": "640 pM", "replicates with signal": "6 of 6", "control signals": "1 of 18"}
{"CDR-L1": "KWSMGVMGESRNFNSVA", "CDR-L2": "NASTRES", "CDR-L3": "QQYHRLPLS", "Kd (apparent)": "670 pM", "replicates with signal": "6 of 6", "control signals": "0 of 18"}

The measurements come from Li et al. 2023 (doi:10.1038/s41467-023-39022-2) through the FLAb antibody collection.